The subject of series [1] is T1, peptide 13, Ac-Glu-Glu-Glu-Ile-Tyr-Dap(NBD)-Glu-Ile-Glu-Ala.
T1 sequence: EEEIYXEIEA

Series [2] has as its system T2, peptide 14, Ac-Glu-Glu-Glu-Ile-Tyr-Gly-Glu-Ile-Dab(dapoxyl)-Ala.
T2 sequence: EEEIYGEIXA

Series [3] deals with peptide 23, Dap-substituted pyrene derivative at Y+3.
Series [4] concerns peptide 25, Dab-modified pyrene analogue at Y-2.

The Km is the substrate concentration at which the rate is half of its maximum. As a reminder, the Vmax is the rate approached at saturating substrate.

Src kinase: the Km result in series [1] is “Km=32±0.5 µM”; in series [2] it was “Km=4.8±0.8 µM”; in series [3], 93 µM; in series [4] it was 21 µM. Besides, the Vmax result in series [1] is “Vmax=1.4±0.1 µmol/min·mg”; in series [2], “Vmax=1.5±0.1 µmol/min·mg”; in series [3], 5.2 µmol/min/mg; in series [4] it was 2.4 µmol/min/mg.

These data come from US20060211075.
